US20040254352A1, “Lipid-polymer-conjugates” (priority 2001, published 2004)
Where “and” joins values, the source holds several entries; their conditions need not be identical. Equal values may be shown once.

Assay: Particle size and polydispersity of liposomes by (dynamic) light scattering
Assay type: physicochemical
Details: DPPC/cholesterol/conjugate liposomes of Table 1 (Example 21); for Average particle size: dynamic light scattering
Description: The lipid loss during preparation of the liposomes was 25%, determined by comparing the final radioactivity of the preparation with the activity before the extrusion procedure. The suspension of liposomes was stored in a nitrogen atmosphere at 4° C. Liposomes were prepared using the film method, as described in example 20. Instead of egg phosphatidylcholine dipalmitoyl phosphatidylcholine was used. 5 mM HEPES buffer was added to the dry lipid film and shaken during 5 minutes in the presence of glass beads in order to enable complete hydration of the lipid film. The liposomes were sized by extrusion 12 times through 2 stacked PC membranes having pore sizes of 100 and 200 nm. […] See table 1 for the properties of the liposomal preparations.

Substance | Average particle size | Polydispersity index
Poly(2-hydroxyethyl)-L-asparagine DODASuc [Ex. 11] | 146.0 ± 2.1 nm and 147.0 ± 1.1 nm and 141.7 ± 2.3 nm and 152.9 ± 3.4 nm and 167.7 ± 0.6 nm and 149.9 ± 2.3 nm and 162.7 ± .024 nm | –
Poly(DL-asparagine) DODASuc [Ex. 17] | 164.7 ± 4.0 nm | 0.116
Poly(DL-glutamine DODASuc [Ex. 16] | 156.3 ± 3.2 nm | 0.059
Poly(DL-serine) DODASuc [Ex. 13] | 162.7 ± 1.6 nm | 0.159
poly(HEG-co-glutamic acid)diaminobutane DODASuc; 5% glutamic acid [Ex. 8] | 180.7 ± 6.1 nm and 167.7 ± 0.6 nm | –
